Reference: PMC8800018, “Discovery of novel selective PI3Kγ inhibitors through combining machine learning-based virtual screening with multiple protein structures and bio-evaluation” (Journal of Advanced Research, 2021)

Protein sequences, listed by entry. Tags and fused reporters are not part of them. Lines headed by an entry give the natural chain unless they say otherwise; changes in a name come on top.
UniProt P48736: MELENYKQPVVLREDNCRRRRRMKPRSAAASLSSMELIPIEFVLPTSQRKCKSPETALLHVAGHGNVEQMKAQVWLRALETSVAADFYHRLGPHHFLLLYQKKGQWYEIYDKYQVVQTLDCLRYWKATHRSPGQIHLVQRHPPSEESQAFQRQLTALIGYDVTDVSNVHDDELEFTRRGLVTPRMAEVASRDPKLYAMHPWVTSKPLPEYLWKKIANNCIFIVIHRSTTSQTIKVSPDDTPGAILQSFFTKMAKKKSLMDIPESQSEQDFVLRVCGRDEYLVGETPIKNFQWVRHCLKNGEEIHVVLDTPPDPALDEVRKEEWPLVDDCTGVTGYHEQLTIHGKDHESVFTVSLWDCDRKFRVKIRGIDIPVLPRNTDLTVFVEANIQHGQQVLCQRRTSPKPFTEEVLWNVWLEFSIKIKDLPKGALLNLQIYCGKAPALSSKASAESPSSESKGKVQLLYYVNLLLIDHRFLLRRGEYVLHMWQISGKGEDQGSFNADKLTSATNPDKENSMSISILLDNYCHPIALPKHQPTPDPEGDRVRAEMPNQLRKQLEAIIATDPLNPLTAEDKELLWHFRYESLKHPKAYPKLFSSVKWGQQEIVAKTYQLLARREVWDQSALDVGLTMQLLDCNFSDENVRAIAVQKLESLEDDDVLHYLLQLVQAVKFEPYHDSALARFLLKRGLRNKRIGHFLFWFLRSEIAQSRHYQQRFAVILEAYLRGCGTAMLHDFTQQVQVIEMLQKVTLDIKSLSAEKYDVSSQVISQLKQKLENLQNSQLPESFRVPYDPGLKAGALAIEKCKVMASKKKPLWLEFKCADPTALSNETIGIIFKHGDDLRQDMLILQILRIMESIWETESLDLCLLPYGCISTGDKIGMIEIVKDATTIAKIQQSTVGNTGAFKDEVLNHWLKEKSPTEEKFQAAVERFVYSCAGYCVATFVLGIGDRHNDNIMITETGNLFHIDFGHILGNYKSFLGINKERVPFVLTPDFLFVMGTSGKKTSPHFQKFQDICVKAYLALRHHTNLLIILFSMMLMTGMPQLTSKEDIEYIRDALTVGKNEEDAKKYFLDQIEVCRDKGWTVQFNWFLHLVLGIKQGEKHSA
UniProt P42338: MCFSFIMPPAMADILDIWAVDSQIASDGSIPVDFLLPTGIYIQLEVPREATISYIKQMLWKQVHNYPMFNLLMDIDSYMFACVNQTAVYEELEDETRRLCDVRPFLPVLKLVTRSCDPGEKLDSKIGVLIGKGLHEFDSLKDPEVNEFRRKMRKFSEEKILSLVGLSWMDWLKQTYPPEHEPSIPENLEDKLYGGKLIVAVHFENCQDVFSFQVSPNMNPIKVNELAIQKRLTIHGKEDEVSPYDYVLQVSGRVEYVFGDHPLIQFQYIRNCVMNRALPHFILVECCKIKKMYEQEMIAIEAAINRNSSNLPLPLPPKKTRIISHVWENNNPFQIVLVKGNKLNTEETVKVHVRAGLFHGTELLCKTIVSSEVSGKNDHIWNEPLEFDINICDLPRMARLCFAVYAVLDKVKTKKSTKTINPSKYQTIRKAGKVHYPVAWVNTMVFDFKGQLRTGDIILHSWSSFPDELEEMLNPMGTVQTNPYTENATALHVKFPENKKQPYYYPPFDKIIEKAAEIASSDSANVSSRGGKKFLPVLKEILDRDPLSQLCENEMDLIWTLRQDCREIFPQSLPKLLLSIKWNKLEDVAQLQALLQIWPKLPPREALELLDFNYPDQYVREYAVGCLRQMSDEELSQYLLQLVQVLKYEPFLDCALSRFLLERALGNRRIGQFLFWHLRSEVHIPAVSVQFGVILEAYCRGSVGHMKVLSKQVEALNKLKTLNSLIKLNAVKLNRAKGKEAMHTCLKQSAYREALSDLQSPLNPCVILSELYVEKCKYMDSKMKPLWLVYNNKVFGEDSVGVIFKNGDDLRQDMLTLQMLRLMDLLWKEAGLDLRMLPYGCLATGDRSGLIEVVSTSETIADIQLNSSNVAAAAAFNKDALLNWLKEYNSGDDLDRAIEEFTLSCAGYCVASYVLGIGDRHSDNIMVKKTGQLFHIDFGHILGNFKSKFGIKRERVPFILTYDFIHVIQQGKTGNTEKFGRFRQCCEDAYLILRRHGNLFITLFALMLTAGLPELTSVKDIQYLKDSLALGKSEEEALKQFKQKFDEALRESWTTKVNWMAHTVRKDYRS

Tests used:
PI3Kγ = PI3Kγ (Homo sapiens, UniProt P48736); test: ADP-Glo cell-free PI3K kinase activity assay; conditions: read-out: Cell-free inhibitory IC50 PI3Kγ; ATP 25 μM; average of triple tests
PI3Kβ = PI3Kβ (Homo sapiens, UniProt P42338); test: ADP-Glo cell-free PI3K kinase activity assay

## O=c1cc(N2CCOCC2)oc2c(-c3ccccc3)cccc12 [LY294002, reference compound]
PI3Kγ
  IC50: 2980 nM
PI3Kβ
  IC50: 2580 nM
